From US10869922B2 (priority 2016, dated 2020)

System: C57BL/6 mouse primary bone marrow DC
Details: high NaCl concentration

In the case of [Cl-].[Na+] [NaCl, sodium chloride], the DC maturation (48 h, FIG. 7) is reported as “promote”, the “expression of CD80 on DC surface” value (48 h, flow cytometry, FIG. 7) is reported as “increase” and the “expression of CD86 on DC surface” value (48 h, flow cytometry, FIG. 7) is reported as “increase”. The “expression of MHCII on DC surface” value (48 h, flow cytometry, FIG. 7) was “increase”, the “DCs' phagocytosis of the antigen” value (FIG. 8) was “promote” and the “release of inflammatory cytokine IL1b in mRNA and protein levels” value (FIG. 9) was “increase”. The “release of inflammatory cytokine IL6 in mRNA and protein levels” value (FIG. 9) was “increase”.
